The target of the experiment is T1, human GLP-1 receptor (Homo sapiens, UniProt P43220).
T1 construct: expressed in transfected cells; host or cells: CHOK1 cells with a cAMP-regulated luciferase reporter construct
Nature of the experiment: GLP-1R reporter assay (cAMP-regulated luciferase, CHOK1 cells), human receptor. The format is cell-based. As for the experimental part: A. GLP-1R Reporter Assay:
Increased cAMP levels were measured through enhanced expression of a luciferase reporter gene. […] The evening prior to assay, the cells were washed, the medium replaced with serum-free medium containing 0.5% protease-free bovine serum albumin (BSA), and then cultured overnight. […] Cell lysates were assayed for luciferase activity using the Luciferase Assay System (Promega Corporation, Madison, Wis.). Luciferase activity was measured using a Luminoskan Ascent (Thermo Electron Corporation, Marietta, Ohio). Nonlinear regression analyses of resultant compound concentration curves were performed using GraphPad Prism (GraphPad Software, Inc., San Diego, Calif.).

Amino acid sequences for entries named in this document (tags omitted). Residues count along the entry.
UniProt P43220, 24-463: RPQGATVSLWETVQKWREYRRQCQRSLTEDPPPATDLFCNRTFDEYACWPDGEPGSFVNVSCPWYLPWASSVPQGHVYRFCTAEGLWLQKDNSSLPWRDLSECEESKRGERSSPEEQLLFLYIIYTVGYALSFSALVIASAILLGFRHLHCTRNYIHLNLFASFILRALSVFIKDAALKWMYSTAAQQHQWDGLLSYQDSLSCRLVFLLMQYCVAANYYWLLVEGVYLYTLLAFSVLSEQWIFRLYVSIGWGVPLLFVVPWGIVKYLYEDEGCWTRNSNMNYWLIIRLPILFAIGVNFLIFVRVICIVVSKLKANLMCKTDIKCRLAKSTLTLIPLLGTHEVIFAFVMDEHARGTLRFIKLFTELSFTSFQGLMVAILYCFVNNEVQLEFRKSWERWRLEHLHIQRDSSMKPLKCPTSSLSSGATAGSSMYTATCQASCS

Molecule `CC[C@H](C)[C@H](NC(=O)[C@@H]1CCCCNC(=O)CC[C@H](NC(=O)[C@H](CCC(N)=O)NC(=O)CNC(=O)[C@H](CCC(=O)O)NC(=O)[C@H](CC(C)C)NC(=O)[C@H](Cc2ccc(O)cc2)NC(=O)[C@H](CO)NC(=O)[C@H](CO)NC(=O)[C@@H](NC(=O)[C@H](CC(=O)O)NC(=O)[C@H](CO)NC(=O)[C@@H](NC(=O)[C@H](Cc2ccccc2)NC(=O)[C@@H](NC(=O)CNC(=O)[C@H](CCC(=O)O)NC(=O)CNC(=O)[C@@H](N)Cc2c[nH]cn2)[C@@H](C)O)[C@@H](C)O)C(C)C)C(=O)N[C@@H](C)C(=O)N[C@@H](CCCCN)C(=O)N[C@@H](CCC(=O)O)C(=O)N1)C(=O)N[C@@H](C)C(=O)N[C@@H](Cc1c[nH]c2ccccc12)C(=O)N[C@@H](CC(C)C)C(=O)N[C@H](C(=O)N[C@@H](CCCCN)C(=O)NCC(=O)N[C@@H](CCCNC(=N)N)C(=O)NCC(N)=O)C(C)C` [[Gly8]GLP1(7-37) cyclo[Glu18-Lys22], HGEGTFTSDVSSYLEGQEAKEKIAWLVKGRG AMIDE] came in with a half-maximal effective concentration (EC50) of 0.8 nM.
For `CC[C@H](C)[C@H](NC(=O)[C@H](Cc1ccccc1)NC(=O)[C@H](CCC(=O)O)NC(=O)[C@H](CCCCN)NC(=O)[C@@H]1CCCCNC(=O)CC[C@H](NC(=O)[C@H](CC(C)C)NC(=O)[C@H](Cc2ccc(O)cc2)NC(=O)[C@H](CO)NC(=O)[C@H](CO)NC(=O)[C@@H](NC(=O)[C@H](CC(=O)O)NC(=O)[C@H](CO)NC(=O)[C@@H](NC(=O)[C@H](Cc2ccccc2)NC(=O)[C@@H](NC(=O)CNC(=O)[C@H](CCC(=O)O)NC(=O)CNC(=O)[C@@H](N)Cc2c[nH]cn2)[C@@H](C)O)[C@@H](C)O)C(C)C)C(=O)NCC(=O)N[C@@H](CCC(N)=O)C(=O)N[C@@H](C)C(=O)N1)C(=O)N[C@@H](C)C(=O)N[C@@H](Cc1c[nH]c2ccccc12)C(=O)N[C@@H](CC(C)C)C(=O)N[C@H](C(=O)N[C@@H](CCCCN)C(=O)NCC(=O)N[C@@H](CCCNC(=N)N)C(=O)NCC(N)=O)C(C)C` [[Gly8]GLP1(7-37) cyc[Glu15-Lys19], HGEGTFTSDVSSYLEGQAKKEFIAWLVKGRG AMIDE] the value was 0.15 nM.

Source of the values: patent publication US20130203659A1 (priority 2006, published 2013).
